Experimental findings from US20240376151A1, “STAPLED PEPTIDES AND METHODS THEREOF” (FOG PHARMACEUTICALS, INC., priority 2022, published 2024) are described below.

Protein sequences, listed by entry. Tags and fused reporters are not part of them. Residues count along the entry.
UniProt Q9NZQ7, 18-239: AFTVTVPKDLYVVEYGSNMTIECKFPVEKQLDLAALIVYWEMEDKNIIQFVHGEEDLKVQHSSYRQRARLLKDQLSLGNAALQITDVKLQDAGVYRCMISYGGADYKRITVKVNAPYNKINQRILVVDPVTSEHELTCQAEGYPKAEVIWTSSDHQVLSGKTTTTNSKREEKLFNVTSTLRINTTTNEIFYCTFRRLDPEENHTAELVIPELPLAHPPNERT

For this experiment, the target named is PD-L1 (Homo sapiens, UniProt Q9NZQ7). To be noted: PD-L1 in the presence of competitor PD1_300.

Consider DPALWQCVFAARSCYEE, for which the “phage screen counts, Competitor PD1_300” value was found to be 496. As to DPAAADCQWAAFLCRVY, the “phage screen counts, Competitor PD1_300” value was 0.
